The values below are quoted from earlier work in US20070015719A1, “Nanoparticulate clarithromycin formulations” (Elan Pharma International Limited, priority 2005, published 2007).

The conditions of the data set: in vivo, po.

As for “6-o-methyl erythromycin A [clarithromycin]”, the absolute bioavailability was 50%.
